From PubChem BioAssay AID588819 (The Scripps Research Institute Molecular Screening Center, 2011)
This is a selection; strong and weak results do not stand in their true shares. The source made the active and inactive calls. No stated cut-off is given here; in the data, active means activation above about 19% (passing the limit was not always enough); inactive means the rest.

The chains behind the UniProt entries cited, without tags or fusion partners.
UniProt P11229, whole entry: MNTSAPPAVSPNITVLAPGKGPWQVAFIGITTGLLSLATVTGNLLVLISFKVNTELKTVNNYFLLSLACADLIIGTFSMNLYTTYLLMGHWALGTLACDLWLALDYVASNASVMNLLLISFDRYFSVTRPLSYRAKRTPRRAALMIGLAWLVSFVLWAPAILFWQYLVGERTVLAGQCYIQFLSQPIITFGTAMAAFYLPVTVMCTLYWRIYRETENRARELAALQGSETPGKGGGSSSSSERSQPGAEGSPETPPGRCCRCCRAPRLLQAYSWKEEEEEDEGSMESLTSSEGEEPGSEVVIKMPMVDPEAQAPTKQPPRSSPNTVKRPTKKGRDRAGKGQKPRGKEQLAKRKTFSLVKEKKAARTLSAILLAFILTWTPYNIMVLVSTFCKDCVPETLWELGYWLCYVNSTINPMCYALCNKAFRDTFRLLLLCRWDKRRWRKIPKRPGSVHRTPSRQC

Each molecule was assayed against Muscarinic acetylcholine receptor M1 (Homo sapiens) (UniProt P11229) (assay: human M1 muscarinic receptor positive allosteric modulators, primary screen, CHO-K1 cells, Fluo-8 calcium fluorescence, 1536-well (AID 588819)). Conditions: CHO-K1 hM1, Fluo-8 calcium fluorescence, ACh EC20; at 3 µM; hits give high values; 0% = ACh EC20, 100% = maximal ACh.

| SMILES | activation |
| --- | --- |
| CCC(c1nnnn1C1CCCCC1)N1CCC(n2c(=O)[nH]c3ccccc32)CC1 (configuration not stated) | inactive: 2.98% |
| CC(=O)N(c1ccccc1)C1CCNCC1 | inactive: 7.27% |
| COc1cccc(C(c2nnnn2C2CCCCC2)N2CCC(n3c(=O)[nH]c4ccccc43)CC2)c1OC (configuration not stated) | inactive: -9.71% |
| O=c1[nH]c2ccccc2n1C1CCN(C(c2ccnc3ccccc23)c2nnnn2C2CCCCC2)CC1 (configuration not stated) | inactive: -1.04% |
| COc1cc(OC)cc(C(=O)NCC2(N3CCCCC3)CCCCC2)c1 | inactive: 8.49% |
| Fc1ccccc1NC1CCN(Cc2ccccc2)CC1 | inactive: -0.94% |
| Cc1ccc(C(=O)NCC2(N3CCCCC3)CCCCC2)o1 | inactive: 6.64% |
| Cc1ccc(NC2(C#N)CCN(Cc3ccccc3)CC2)cc1 | inactive: 6.78% |
| CC(C)(C)n1nnnc1C(c1ccnc2ccccc12)N1CCC(n2c(=O)[nH]c3ccccc32)CC1 (configuration not stated) | inactive: 16.6% |
| CCN1CCC(Nc2cccc(F)c2)CC1 | inactive: -4.34% |
| COc1ccc(C(c2nnnn2C2CCCCC2)N2CCC(n3c(=O)[nH]c4ccccc43)CC2)cc1 (configuration not stated) | inactive: 1.92% |
| Cc1ccccc1NC1(C#N)CCN(Cc2ccccc2)CC1 | inactive: -1.1% |
| Cn1c(=O)[nH]cc(N(CCCl)CCCl)c1=O | inactive: -9.11% |
| CN(C)c1ccc(C(=O)NCC2(N3CCCCC3)CCCCC2)cc1 | inactive: 14.7% |
| O=C(NCC1(N2CCCCC2)CCCCC1)c1ccco1 | inactive: 10.8% |
| CN1CCC(Nc2ccc(F)c(Cl)c2)CC1 | inactive: 3.97% |
| CCOc1ncccc1C(=O)NCC1(N2CCOCC2)CCCCC1 | inactive: -6.42% |
| O=C(O)C1(Nc2ccccc2)CCN(Cc2ccccc2)CC1 | inactive: 20.7% |
| CC(C)(C)OC(=O)N1CCC(Nc2ccccc2)CC1 | inactive: 5.55% |
| CCCOc1ccc(C(=O)NCC2(N(C)C)CCCCC2)cc1 | inactive: -8.44% |
| O=c1[nH]c2ccccc2n1C1CCN(C(c2cc3ccccc3o2)c2nnnn2C2CCCC2)CC1 (configuration not stated) | inactive: -0.98% |
| COc1cccc(C(=O)N(c2cc(C)cc(C)c2)C2CCN(C(=O)OC(C)(C)C)CC2)c1 | inactive: -7.26% |

| SMILES | activation |
| --- | --- |
| COc1cccc(C(c2nnnn2C2CCCC2)N2CCC(n3c(=O)[nH]c4ccccc43)CC2)c1OC (configuration not stated) | inactive: -2.83% |
| COc1cc(OC)cc(C(=O)NCC2(N3CCOCC3)CCCCC2)c1 | inactive: 11.4% |
| CCC(CO)(C(=O)OC1CN2CCC1CC2)c1ccccc1 (configuration not stated) | inactive: -23.8% |
| CN1CCC(Nc2ccc(Cl)cc2)CC1 | inactive: 12.3% |
| COc1cc(C(=O)NCC2(N3CCOCC3)CCCCC2)cc(OC)c1C | inactive: 12.1% |
| CCCCn1nnnc1C(c1ccccc1)N1CCC(n2c(=O)[nH]c3ccccc32)CC1 (configuration not stated) | inactive: -13.4% |
| O=C(NCC1(N2CCOCC2)CCCCC1)c1cc(Br)ccc1Cl | inactive: 4.74% |
| O=c1[nH]c2ccccc2n1C1CCN(C(c2cccs2)c2nnnn2C2CCCCC2)CC1 (configuration not stated) | inactive: 0.75% |
| O=c1[nH]c2ccccc2n1C1CCN(C(c2ccnc3ccccc23)c2nnnn2C2CCCC2)CC1 (configuration not stated) | inactive: -14.3% |
| COc1ccc(C(=O)NCC2(N3CCOCC3)CCCCC2)cc1OC | inactive: 10% |
| COc1cccc(C(c2nnnn2C(C)(C)C)N2CCC(n3c(=O)[nH]c4ccccc43)CC2)c1OC (configuration not stated) | inactive: -3.34% |
| CCOC(=O)N1CCC(Nc2ccc(C)cc2)CC1 | inactive: 9.72% |
| N/C(=N\O)c1c(N)no[n+]1[O-] | inactive: 1.8% |
| O=c1[nH]c2ccccc2n1C1CCN(C(c2cccs2)c2nnnn2C2CCCC2)CC1 (configuration not stated) | inactive: -2.76% |
| O=C(OC1CN2CCC1CC2)C1c2ccccc2C=Cc2ccccc21 (configuration not stated) | inactive: -25.7% |
| CCCCn1nnnc1C(c1cccc(OC)c1OC)N1CCC(n2c(=O)[nH]c3ccccc32)CC1 (configuration not stated) | inactive: -14.1% |
| N#Cc1ccc(C(=O)NCC2(N3CCCCC3)CCCCC2)cc1 | inactive: 4.76% |
| CC(C)(C)OC(=O)N1CCC(N(C(=O)c2ccccc2)c2ccc(Cl)cc2)CC1 | inactive: -0.44% |
| CN(C)C1(CNC(=O)c2cccc(C#N)c2)CCCCC1 | inactive: 10.4% |
| Cc1cc(N(CCCl)CCCl)ccc1C=O | inactive: 7.37% |
| CCCN1CCC(Nc2cc(OC)cc(OC)c2)CC1 | inactive: 14.1% |
| O=c1[nH]c2ccccc2n1C1CCN(C(c2ccccc2)c2nnnn2C2CCCC2)CC1 (configuration not stated) | inactive: -9.31% |

| SMILES | activation |
| --- | --- |
| c1ccc(CN2CCC(Nc3ccccc3)CC2)cc1 | inactive: -2.19% |
| CC(C)(C)n1nnnc1C(c1cccc2ccccc12)N1CCC(n2c(=O)[nH]c3ccccc32)CC1 (configuration not stated) | inactive: 7.17% |
| O=C(NCC1(N2CCCCC2)CCCCC1)c1ccc(OC(F)F)cc1 | inactive: 16.9% |
| CC(C)(C)n1nnnc1C(c1ccccc1OC(F)(F)F)N1CCC(n2c(=O)[nH]c3ccccc32)CC1 (configuration not stated) | inactive: 3.64% |
| N#CC1(Nc2ccccc2)CCN(CCc2ccccc2)CC1 | inactive: 12.7% |
| O=c1[nH]c2ccccc2n1C1CCN(C(c2ccccc2OC(F)(F)F)c2nnnn2C2CCCC2)CC1 (configuration not stated) | inactive: 2.89% |
| CCN1CCC(Nc2ccc(Cl)cc2)CC1 | inactive: -1.65% |
| CSc1ccc(C(=O)NCC2(N3CCOCC3)CCCCC2)cc1 | inactive: 5.12% |
| O=C(NCC1(N2CCCCC2)CCCCC1)c1cccc([N+](=O)[O-])c1 | inactive: 6.83% |
| O=C(NCC1(N2CCCCC2)CCCCC1)c1cccc(C(F)(F)F)c1 | inactive: 6.85% |
| O=C(NCC1(N2CCOCC2)CCCCC1)c1cc(=O)[nH]c2ccccc12 | inactive: 5.88% |
| COc1cc(C(=O)NCC2(N3CCCCC3)CCCCC2)ccc1OC(F)F | inactive: -16.1% |
| CCCCn1nnnc1C(c1cccc2ccccc12)N1CCC(n2c(=O)[nH]c3ccccc32)CC1 (configuration not stated) | inactive: 8.82% |
| CC(C)c1ccc(C(=O)NCC2(N3CCOCC3)CCCCC2)cc1 | inactive: 4.18% |
| COc1ccc(NC2CCN(C(=O)OC(C)(C)C)CC2)cc1 | inactive: 2.58% |
| CN1CCN(CCOC(=O)C(O)(c2ccccc2)c2ccccc2)CC1 | inactive: -24% |
| CC(C)c1ccc(NC2CCN(C(=O)OC(C)(C)C)CC2)cc1 | inactive: 0.05% |
| CCCCn1nnnc1C(c1ccccc1OC(F)(F)F)N1CCC(n2c(=O)[nH]c3ccccc32)CC1 (configuration not stated) | inactive: 7.27% |
| CN(C)c1cccc(C(=O)NCC2(N3CCCCC3)CCCCC2)c1 | inactive: -1.15% |
| COc1ccc(CN(CCCl)CCCl)cc1Cl | inactive: 11.2% |
| CCC(c1nnnn1C(C)(C)C)N1CCC(n2c(=O)[nH]c3ccccc32)CC1 (configuration not stated) | inactive: 2.19% |
| O=C(NCC1(N2CCOCC2)CCCCC1)c1cc(F)c(F)cc1Cl | inactive: 8.31% |

| SMILES | activation |
| --- | --- |
| COc1cc(OC)c(C(=O)NCC2(N(C)C)CCCCC2)cc1OC | inactive: 15.2% |
| CCCCn1nnnc1C(c1ccnc2ccccc12)N1CCC(n2c(=O)[nH]c3ccccc32)CC1 (configuration not stated) | inactive: -19.4% |
| O=C(NCC1(N2CCCCC2)CCCCC1)c1cncc(Br)c1 | inactive: 4.86% |
| CN1CCC(Nc2cccc(F)c2)CC1 | inactive: -2.22% |
| COc1ccc(C(c2nnnn2C2CCCC2)N2CCC(n3c(=O)[nH]c4ccccc43)CC2)cc1 (configuration not stated) | inactive: -1.19% |
| CCCOc1ccc(C(=O)NCC2(N(C)C)CCCCC2)cc1OC | inactive: 3.22% |
| Cc1ccc(C(=O)NCC2(N(C)C)CCCCC2)o1 | inactive: 3.86% |
| CCC(c1nnnn1C1CCCC1)N1CCC(n2c(=O)[nH]c3ccccc32)CC1 (configuration not stated) | inactive: 2.13% |
| CC(C)(C)OC(=O)N1CCC(N(C(=O)c2ccccc2)c2ccc(F)cc2)CC1 | inactive: 6.1% |
| COc1ccc(C(=O)NCC2(N3CCCCC3)CCCCC2)c(OC)c1OC | inactive: 3.59% |
| COc1ccc(C(=O)NCC2(N3CCCCC3)CCCCC2)cc1 | inactive: 3.68% |
| CCCCn1nnnc1C(c1cccs1)N1CCC(n2c(=O)[nH]c3ccccc32)CC1 (configuration not stated) | inactive: -2.62% |
| O=C(NCC1(N2CCCCC2)CCCCC1)c1cccs1 | inactive: 11.8% |
| CCCCn1nnnc1C(CC)N1CCC(n2c(=O)[nH]c3ccccc32)CC1 (configuration not stated) | inactive: -0.04% |
| O=C(NCC1(N2CCCCC2)CCCCC1)c1ccc(=O)[nH]c1 | inactive: 0.08% |
| Cc1cccc(NC2(C#N)CCN(Cc3ccccc3)CC2)c1 | inactive: 4.53% |
| CSc1ccccc1C(=O)NCC1(N2CCCCC2)CCCCC1 | inactive: 8.23% |
| Cc1cc(C)cc(N(C(=O)c2ccccc2)C2CCN(C(=O)OC(C)(C)C)CC2)c1 | inactive: 11.4% |
| O=c1[nH]c2ccccc2n1C1CCN(C(c2ccccc2OC(F)(F)F)c2nnnn2C2CCCCC2)CC1 (configuration not stated) | inactive: -1.07% |
| O=C(NCC1(N2CCCCC2)CCCCC1)c1ccc(Cl)nc1 | inactive: 3.07% |
| O=C(NCC1(N2CCOCC2)CCCCC1)c1cc2ccccc2o1 | inactive: 6.4% |
| COc1ccc(Cl)cc1C(=O)NCC1(N2CCOCC2)CCCCC1 | inactive: 0.88% |

| SMILES | activation |
| --- | --- |
| O=c1[nH]c2ccccc2n1C1CCN(C(c2cc3ccccc3o2)c2nnnn2C2CCCCC2)CC1 (configuration not stated) | inactive: 0.85% |
| O=C(OC1CN2CCC1CC2)C1c2ccccc2Oc2ccccc21 (configuration not stated) | inactive: -21.6% |
| N#CC1(Nc2ccccc2)CCN(Cc2ccccc2)CC1 | inactive: 3.55% |
| O=C(NCC1(N2CCCCC2)CCCCC1)c1ccc(Cl)s1 | inactive: -0.18% |
| CCCCn1nnnc1C(c1ccc(OC)cc1)N1CCC(n2c(=O)[nH]c3ccccc32)CC1 (configuration not stated) | inactive: -25.8% |
| CCOC(=O)N1CCC(Nc2ccc(OC)cc2)CC1 | inactive: 5.9% |
| O=C1CCN(Cc2ccccc2)CC1 | inactive: 1.35% |
| CC(C)(C)n1nnnc1C(c1ccccc1)N1CCC(n2c(=O)[nH]c3ccccc32)CC1 (configuration not stated) | inactive: -6.74% |
| CCOc1ccc(C)cc1CN(CCCl)CCCl | inactive: -1.6% |
| CCOC(=O)N1CCC(Nc2ccc(F)cc2)CC1 | inactive: 5.99% |
| COc1ccc(NC2CCN(CCc3ccccc3)CC2)c(OC)c1 | inactive: 0.93% |
| O=C(NCC1(N2CCCCC2)CCCCC1)c1ccc(F)cc1 | inactive: 0.71% |
| CCCCOc1ccc(C(=O)NCC2(N3CCOCC3)CCCCC2)cc1 | inactive: 2.93% |
| O=P1(N(CCCl)CCCl)SCCCS1 | inactive: 0.47% |
| CCCCn1nnnc1C(c1cc2ccccc2o1)N1CCC(n2c(=O)[nH]c3ccccc32)CC1 (configuration not stated) | inactive: 1.2% |
| O=c1[nH]c2ccccc2n1C1CCN(C(c2ccccc2)c2nnnn2C2CCCCC2)CC1 (configuration not stated) | inactive: 1.95% |
| COc1cc(C(=O)NCC2(N(C)C)CCCCC2)ccc1OC(F)F | inactive: 6.19% |
| CCOC(=O)N1CCC(Nc2cccc(C)c2)CC1 | inactive: 12.9% |
| O=c1[nH]c2ccccc2n1C1CCN(C(c2cccc3ccccc23)c2nnnn2C2CCCC2)CC1 (configuration not stated) | inactive: 4.18% |
